# From patent US20140163075A1, “MODULATION OF THE UBIQUITIN-PROTEASOME SYSTEM (UPS)” (NETHERLAND CANCER INSTITUTE, priority 2011, published 2014)
# System: proteasome subunits (β2- and β5-subunits)
# Assay: SDS-PAGE in-gel fluorescence of probe-labelled proteasome subunits in MelJuSo (MEL-JUSO) cells
# Assay type: cell-based, human
# Description: Cells were washed once with phosphate buffered saline (PBS, 1 GIBCO tablet in 500 mL MilliQ). Fresh medium containing the compound at the indicated concentration was added. After the incubation time 200 nM of Me4BodipyFL-Ahx3Leu3VS activity probe was added to the cells and after two hours of incubation cells were harvested for subsequent analysis by FACS or post-lysis fluorescence detection.
# Cells were washed once with PBS, trypsin (6 well plate: 500 μL, 12 well plate: 200 μL, 24 well plate: 100 μL) was added and the plate was placed at 37° C. for 5 minutes to allow the cells to detach. When fully detached the cells were resuspended in fresh culture medium. […] After a centrifugation step (13.600 rpm for 10 minutes) to remove cell debris the protein concentration (absorbance at 280 nm) of the supernatant is measured with a NanoDrop spectrophotometer. […]
# Equal amounts of protein (15-20 μg) were denatured by heating the samples for 10 minutes at 71° C. in loading buffer (450 μL 4× loading buffer (Invitrogen), 45 μL β-Mercaptoethanol and 105 μl, MilliQ, 2 parts sample to 1 part loading buffer). […] Images were analyzed using Totallab analysis software (Nonlinear Dynamics, Newcastle upon Tyne, UK) to quantify the intensity of the bands detected. […]
structure (smiles),measurement,value
O=[N+]([O-])c1ccc(-c2nc(-c3ccc(F)cc3)c(-c3ccncc3)[nH]2)cc1 [PD169316],fluorescent signal of the β2- and β5-subunits,seemed to increase the fluorescent signal
